Target: Adenosine receptor A1 (Rattus norvegicus, UniProt P25099)
Assay: biochemical

Chains of the proteins cited; added tags and fusions are not shown.
UniProt P25099, whole entry: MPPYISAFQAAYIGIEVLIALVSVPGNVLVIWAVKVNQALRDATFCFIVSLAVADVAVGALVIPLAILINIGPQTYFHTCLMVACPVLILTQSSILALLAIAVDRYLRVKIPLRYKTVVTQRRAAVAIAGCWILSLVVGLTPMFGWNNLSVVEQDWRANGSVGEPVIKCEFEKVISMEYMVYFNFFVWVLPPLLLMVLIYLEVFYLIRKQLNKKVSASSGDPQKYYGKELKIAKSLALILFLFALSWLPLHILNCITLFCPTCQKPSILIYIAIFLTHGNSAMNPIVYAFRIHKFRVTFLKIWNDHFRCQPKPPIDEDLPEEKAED

Ki: 1.5 nM
Compound: CCCn1c(=O)c2nc(C3CC3)[nH]c2n(CCC)c1=O

From ChEMBL document CHEMBL1127769, “Synthesis of new pyrazolo[4,3-e]1,2,4-triazolo[1,5-c] pyrimidine and 1,2,3-triazolo[4,5-e]1,2,4-triazolo[1,5-c] pyrimidine displaying potent and selective activity as A2a adenosine receptor antagonists” (Bioorg Med Chem Lett, 1994)
